Laboratory results from PubChem BioAssay AID2025 (NMMLSC, 2009).
The entries are a selection whose mix differs from that of the whole data set. Active and inactive are the calls of the source.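 The calls were made as follows: active = percent response vs DMSO below 50%; inconclusive = fewer than 70 events counted for the yeast strain; inactive = the rest.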

Assay: RPL19A-GFP expression modulators in yeast, primary screen, cell-based, S. cerevisiae, multiplex flow cytometry, MLPCN (AID 2025);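 also: median channel GFP fluorescence of the barcoded RPL19A-GFP strain; ratio of sample median GFP to plate DMSO average so 100% = DMSO; lower means less RPL19A-GFP as with rapamycin TOR inhibition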
Conditions: S. cerevisiae RPL19A-GFP strain, 3 h, at 10 µM, hits give low values

SMILES | percent response vs DMSO
Cc1cccc(OCC(=O)OC2CN3CCC2CC3)c1 (stereo not drawn) | inactive: 105%
O=[As](O)(c1cccc(O)c1)c1cccc(O)c1 | inactive: 98.5%
O=C(OC1CN2CCC1CC2)c1ccc(Cl)cc1 (stereo not drawn) | inactive: 89.9%
CS(=O)(=O)c1ccc(Cl)c(NC(=O)COC(=O)C(O)(c2ccccc2)c2ccccc2)c1 | inactive: 110%
O=[As](O)(O)c1cccnc1 | inactive: 98.4%
COc1cc(C(=O)NCC2(N3CCOCC3)CCCCC2)cc(Cl)c1OC(C)C | inactive: 96.6%
CCOP(=O)(Nc1cccc2ccccc12)OCC | inactive: 112%
COc1cc(C2NCCC3(OCCO3)C2(C)C)cc(OC)c1OC (stereo not drawn) | inactive: 98.8%
Cc1ccc(NCCc2c([N+](=O)[O-])cc([N+](=O)[O-])cc2[N+](=O)[O-])cc1 | inactive: 99.7%
Nc1cccc2c([As](=O)(O)O)cccc12 | inactive: 102%
CCCOP(=S)(Nc1nc(N)cc(=O)[nH]1)OCCC | inactive: 97.2%
O=C(O)COc1ccc([As](=O)(O)O)cc1[N+](=O)[O-] | inactive: 116%
Nc1ccccc1[As](=O)(O)c1ccccc1 | inactive: 97.2%
O=P(Nc1nccs1)(Oc1ccccc1)Oc1ccccc1 | inactive: 106%
O=P(Nc1nccs1)(c1ccccc1)c1nc2ccccc2s1 (stereo not drawn) | inactive: 95.4%
CCOP1(=S)c2c(C)nn(CCC#N)c2N=C(c2ccccc2F)N1C (stereo not drawn) | inactive: 103%
CS(=O)(=O)c1cc([N+](=O)[O-])c2no[n+]([O-])c2c1 | inactive: 92.5%
CCOP1(=S)c2c(C)nn(CCC#N)c2N=C(c2ccc(F)cc2)N1C (stereo not drawn) | inactive: 95.5%
CN(C(=O)Cc1ccccc1)[C@@H]1CC[C@]2(CCCO2)C[C@H]1N1CCCC1 | inactive: 96.4%
N#CCCN(C(=O)COC(=O)C(O)(c1ccccc1)c1ccccc1)c1ccc(F)cc1 | inactive: 98.6%
CN(C(=O)Cc1ccc(Cl)c(Cl)c1)[C@H]1CC[C@@]2(CCCO2)C[C@@H]1N1CCCC1 | inactive: 104%
O=[N+]([O-])c1ccc2c(c1)nnn2O | inactive: 105%
CN(C)C(=O)c1cc([N+](=O)[O-])cc2c1-c1c(cc([N+](=O)[O-])cc1[N+](=O)[O-])C2=O | inactive: 92.5%
NC(=O)Nc1ccc([As](=O)(O)O)cc1 | inactive: 99.3%
CN(C)C1(CNC(=O)c2ccc(S(C)(=O)=O)cc2)CCCCC1 | inactive: 108%
O=C(/C=C/c1ccccc1)OC1CN2CCC1CC2 (stereo not drawn) | inactive: 94%

SMILES | percent response vs DMSO
Cc1ccc(C(=O)OC2CN3CCC2CC3)cc1 (stereo not drawn) | inactive: 93%
CC1CCC(C(C)C)C(OP(=O)(Nc2ccccn2)c2ccccc2)C1 (stereo not drawn) | inactive: 99.7%
Cc1nn(-c2ccccc2)c2c1P(=O)(N1CCOCC1)N(C)C(c1ccccc1)=N2 (stereo not drawn) | inactive: 99.6%
Nc1cccc([As](=O)(O)c2ccccc2)c1 | inactive: 87%
Cc1ccc(OCC(=O)OC2CN3CCC2CC3)cc1 (stereo not drawn) | inactive: 97.1%
O=[As](O)(c1cccs1)c1cccs1 | inactive: 96.9%
NS(=O)(=O)c1cccc(NC(=O)COC(=O)C(O)(c2ccccc2)c2ccccc2)c1 | inactive: 96.8%
O=P1(Nc2ccc(Br)cn2)COc2ccccc2OC1 | inactive: 97.8%
O=P1(Nc2ncccn2)COc2ccccc2OC1 | inactive: 106%
CC(C)(C)C(=O)NC(Sc1ncccn1)C(Cl)(Cl)Cl (stereo not drawn) | inactive: 95%
Clc1n[nH]nc1-c1nn[nH][15n]1 | inactive: 101%
CCOP(=O)(NC(=NC(C)c1ccccc1)NC(C)c1ccccc1)OCC (stereo not drawn) | inactive: 94.6%
CCC1=CC2Cc3nc4ccc(Cl)cc4c(N)c3C(C1)C2 (stereo not drawn) | inactive: 100%
O=P1(Nc2ccccn2)COc2ccccc2OC1 | inactive: 102%
CCOP(=O)(Nc1ccc(C)cn1)OCC | inactive: 104%
CN(CCCl)Cc1cc(Cl)c(NC2=NCCN2)c(Cl)c1 | inactive: 103%
CN(C(=O)Cc1ccc(Cl)c(Cl)c1)[C@@H]1CCCC[C@H]1N1CCCC1 | inactive: 96%
CC(C)/C=N\N=C(\N)N[N+](=O)[O-] | inactive: 101%
CC1(CBr)Cn2c(nc3ccccc3c2=O)S1 (stereo not drawn) | inactive: 103%
O=[As](O)(c1ccccc1Br)c1ccccc1Br | inactive: 104%
COc1ccccc1CNC(=O)COC(=O)C(O)(c1ccccc1)c1ccccc1 | inactive: 97.9%
O=C(Nc1ccncc1[N+](=O)[O-])c1ccc([N+](=O)[O-])cc1[N+](=O)[O-] | inactive: 101%
O=C(COc1ccccc1)OC1CN2CCC1CC2 (stereo not drawn) | inactive: 95.3%
COP1(=S)c2c(C)nn(CCC#N)c2N=C(c2ccc(F)cc2)N1C (stereo not drawn) | inactive: 102%
CCC(C)N(CC(C)C)C(=S)SC(NC(C)=O)C(Cl)(Cl)Cl (stereo not drawn) | inactive: 95.8%
O=C(OC1CN2CCC1CC2)c1cccc([N+](=O)[O-])c1 (stereo not drawn) | inactive: 101%

SMILES | percent response vs DMSO
CCOC(=O)c1ccc(NC(=O)C(C)(CCl)SC)cc1 (stereo not drawn) | inactive: 103%
Cc1cc(SC(NC(=O)c2ccccc2)C(Cl)(Cl)Cl)nc(C(C)C)n1 (stereo not drawn) | inactive: 94.6%
CCOC(=O)Nc1ccc([As](=O)(O)O)c(O)c1 | inactive: 108%
Cc1cc(SC(NC=O)C(Cl)(Cl)Cl)ncn1 (stereo not drawn) | inactive: 103%
O=P(Nc1ccccn1)(c1cccc2ccccc12)c1cccc2ccccc12 | inactive: 85.5%
O=[N+]([O-])c1ccc(Nc2ccc(Oc3ccc([N+](=O)[O-])cc3[N+](=O)[O-])cc2)c([N+](=O)[O-])c1 | inactive: 105%
CCOC(=O)Nc1cccc([As](=O)(O)O)c1 | inactive: 92.6%
Cc1ccc(OP(=O)(Nc2ccc([N+](=O)[O-])cn2)Oc2ccc(C)cc2)cc1 | inactive: 102%
Cc1ccc2nc3c(c(C)c2c1)CC(C(Cl)Cl)S3 (stereo not drawn) | inactive: 100%
COc1cc(C(=O)NCC2(N3CCOCC3)CCCCC2)ccc1OCC(C)C | inactive: 102%
C[As](=O)(O)c1cccc(C(=O)O)c1 | inactive: 104%
O=[As](O)(c1ccc(O)cc1)c1ccccc1O | inactive: 97.6%
O=[N+]([O-])c1cc([N+](=O)[O-])c(-c2ccn[nH]2)s1 | inactive: 96.6%
CC(C)NC(=O)NP(=O)(Oc1ccccc1)Oc1ccccc1 | inactive: 96.9%
CCN(CC)C(=S)SC(NC=O)C(Cl)(Cl)Cl (stereo not drawn) | inactive: 100%
ClCCSc1nnc(-c2cccnc2)o1 | inactive: 93.9%
CC(C)c1ccc(OP(=O)(Nc2ccccn2)Oc2ccccc2F)cc1 (stereo not drawn) | inactive: 93.6%
COc1cc(I)ccc1[As](=O)(O)O | inactive: 106%
COc1ccc2nc(NP(=O)(c3ccccc3)c3ccccc3)sc2c1 | inactive: 98.4%
Cc1c2c(nc3ccccc13)SC(C(Cl)Cl)C2 (stereo not drawn) | inactive: 102%
Cc1cc(=O)[nH]c(N[N+](=O)[O-])n1 | inactive: 102%
O=C(OC1CN2CCC1CC2)C12CC3CC(CC(C3)C1)C2 (stereo not drawn) | inactive: 109%
COc1ccc(N/C(=N/P(=O)(N2CCOCC2)N2CCOCC2)N2CCOCC2)cc1 | inactive: 99.8%
CN1CCCC(OC(=O)C(c2ccccc2)c2ccccc2)C1 (stereo not drawn) | inactive: 97.6%
Clc1ccc(Cl)c(NC2=NCC(CBr)S2)c1 (stereo not drawn) | inactive: 91.4%
Cc1ccc(OP(=O)(Nc2nccs2)Oc2ccc(C)cc2)cc1 | inactive: 105%

SMILES | percent response vs DMSO
COc1ccccc1OP(=O)(Nc1ccc(C)cn1)Oc1ccccc1OC | inactive: 97.7%
Cc1ccc(N/C(=N/P(=O)(N2CCOCC2)N2CCOCC2)N2CCOCC2)cc1 | inactive: 92.7%
CN(C(=O)Cc1ccc(Cl)c(Cl)c1)[C@H]1CCCC[C@H]1N1CCCC1 | inactive: 99%
NC(=O)c1cc([N+](=O)[O-])cc([N+](=O)[O-])c1N | inactive: 102%
O=C(NC(Sc1ccncn1)C(Cl)(Cl)Cl)c1ccccc1 (stereo not drawn) | inactive: 108%
Cc1c2non([O-])c-2c(C)[n+](=O)[n+]1[O-] | inactive: 98%
Oc1ccccc1CNc1ccccn1 | inactive: 94.7%
Nc1cc(N)c2nonc2c1[N+](=O)[O-] | inactive: 95.3%
CC(C)CC(=O)NC(Sc1ccc(Cl)cc1)C(Cl)(Cl)Cl (stereo not drawn) | inactive: 101%
CN(C(=O)Cc1ccc(Cl)c(Cl)c1)[C@H]1CCCC[C@@H]1N1CCCC1 | inactive: 102%
Cc1ccc(NP(=O)(Oc2ccccc2F)Oc2ccccc2F)nc1 | inactive: 93.5%
Cc1cc(SC(NC(=O)c2ccc(F)cc2)C(Cl)(Cl)Cl)ncn1 (stereo not drawn) | inactive: 99.7%
CCOP(=O)(Nc1ccccc1)OCC | inactive: 96.8%
O=P(Nc1nc2ccc(Cl)cc2s1)(c1ccccc1)c1ccccc1 | inactive: 96.3%
CC(=O)Nc1ccc([As](=O)(O)O)cc1 | inactive: 96.4%
O=C(O)c1ccccc1[As](=O)(O)O | inactive: 100%
Nc1cccc2ccc([As](=O)(O)O)cc12 | inactive: 103%
CCN(N=Nc1nonc1N)c1nonc1N | inactive: 104%
O=[N+]([O-])c1cc([N+](=O)[O-])c(CCN2CCOCC2)c([N+](=O)[O-])c1 | inactive: 101%
O=C(Nc1cc([As](=O)(O)O)ccc1O)c1ccccc1 | inactive: 107%
O=C(O)CNc1ccc([As](=O)(O)O)cc1 | inactive: 102%
O=[N+]([O-])c1cccc(NC2=NCC(CBr)S2)c1 (stereo not drawn) | inactive: 108%
O=[N+]([O-])c1ncn(CCn2ncnc2[N+](=O)[O-])n1 | inactive: 92.4%
CC(C)(C)C(=O)NC(Sc1ccncn1)C(Cl)(Cl)Cl (stereo not drawn) | inactive: 94.2%
O=[N+]([O-])c1cc([N+](=O)[O-])c(CCNc2ccccc2)c([N+](=O)[O-])c1 | inactive: 91.5%
